Experimental data from patent publication US8895598B2, “Methods of treating a flaviviridae family viral infection, compositions for treating a flaviviridae family viral infection, and screening assays for identifying compositions for treating a flaviviridae family viral infection” (priority 2007, dated 2014).

Test: Alamar Blue-based viability assay
Conditions: human
Description: The in vivo antiviral effect on HCV RNA replication of the inhibitory compounds identified in the above screen was measured. Following electroporation with a full-length HCV RNA genome harboring a Luciferase reporter gene^28, Huh7.5 cells were grown in the presence of increasing concentrations of these compounds. Luciferase assays were performed at 72 hr. In parallel, the viability of cells in the presence of the compounds was assessed by an Alamar Blue-based assay.
Following 72 hrs of treatment, cells were incubated for 3 hrs at 37° C. in the presence of 10% Alamar Blue reagent (TREK Diagnostic Systems). Plates were then scanned and fluorescence was detected by using FLEXstation II 384 (Molecular Devices, Inc.).

[1] = Viab (cell viability, percent of normal activity remaining)
[2] = Viab score (binned residual cell viability)

SMILES	viability at 72 h, 5 µM [1]	viability at 72 h, 10 µM [1]	viability at 72 h, 5 µM [2]	viability at 72 h, 10 µM [2]
Cc1nc2cc(Cl)ccc2n1Cc1ccccc1	99%	94%	–	–
Cc1cc2ncn(Cc3ccc(Cl)cc3Cl)c2cc1C	83%	70%	60 to 90%	60 to 90%
Brc1ccc(Cn2cnc3ccccc32)cc1	81%	68%	60 to 90%	60 to 90%
Cc1nc2ccccc2n1Cc1ccc(Br)cc1	54%	51%	30 to 60%	30 to 60%
OCc1nc2ccccc2n1Cc1ccc(Br)cc1	97%	90%	–	–
COC(=O)c1ccc(Cn2cnc3ccccc32)cc1	101%	96%	–	–
CC(C)(C)c1ccc(Cn2cnc3ccccc32)cc1	87%	76%	60 to 90%	60 to 90%
Cc1ccc(Cn2cnc3ccccc32)cc1	99%	84%	–	60 to 90%
COc1ccc(Cn2cnc3ccccc32)cc1	98%	100%	–	–
